Test results: patent publication US20040170711A1, “Medical effect of Jojoba oil in the treatment of anal diseases” (Egyptian Natural Oil, priority 2001, published 2004)

Tested on: human body
Test: side effects of Jojoba oil and its preparations
Settings: in vivo

Question: For Jojoba oil, which side effects is on record?
Answer: has not any side-effects
